Measurements from PMC4356558, “Prediction of Chemical Respiratory Sensitizers Using GARD, a Novel In Vitro Assay Based on a Genomic Biomarker Signature” (PLoS ONE, 2015).

Experiments:
MUTZ-3 cells = assay: Chemical cytotoxicity, concentration yielding 90% relative viability (Rv90), propidium iodide staining; conditions: independent test dataset
[1] = tested on: GRPS genomic biomarker signature (389 transcripts) in MUTZ-3 cells; assay: GARD assay with GARD Respiratory Prediction Signature (GRPS), SVM classification of respiratory sensitizers

Substance: Isoeugenol
- Rv90 (MUTZ-3 cells): 300 µM
- SVM decision value 1 ([1]; replicate stimulation 1, 24 h at GARD input concentration, independent test dataset, > 0 = respiratory sensitizer): −1.44
- SVM decision value 2 ([1]; replicate stimulation 2, 24 h at GARD input concentration, independent test dataset, > 0 = respiratory sensitizer): −1.27
- SVM decision value 3 ([1]; replicate stimulation 3, 24 h at GARD input concentration, independent test dataset, > 0 = respiratory sensitizer): −1.32
- Classification, Pos if 1 sample > 0 ([1]; respiratory sensitizer if any of replicate stimulations has SVM decision value > 0): Non-sensitizer
